Values of other authors, collected in patent publication US20120058950A1, “DETECTION OF NEUROPEPTIDES ASSOCIATED WITH PELVIC PAIN DISORDERS AND USES THEREOF” (University of Vermont and State Agricultural College, priority 2003, published 2012).

How the values were obtained:
[1] = tested on: isolated human detrusor smooth muscle
micturition contractions [2] = settings: 10 nmol/kg intravenously, urethane-anesthetized hamster
micturition contractions [3] = settings: 10 nmol/kg intravenously, rat

**Q.** Which results are given for Calcitonin Gene-Related Peptide [CGRP]?
**A.** effect on isometric tension [1]: little effect; mean amplitude of micturition contractions MAC (micturition contractions [2]): decreased; pressure threshold for micturition (micturition contractions [2]): decreased; mean amplitude of micturition contractions MAC (micturition contractions [3]): not in the rat at this dose; pressure threshold for micturition (micturition contractions [3]): not in the rat at this dose

Where two headings read alike, the source gives them in different places.
